Measurements reported in ChEMBL document CHEMBL2331145, “Orvinols with mixed kappa/mu opioid receptor agonist activity” (2013).

By UniProt entry, the sequences of proteins in these tests, tags left out.
UniProt P41144, whole entry: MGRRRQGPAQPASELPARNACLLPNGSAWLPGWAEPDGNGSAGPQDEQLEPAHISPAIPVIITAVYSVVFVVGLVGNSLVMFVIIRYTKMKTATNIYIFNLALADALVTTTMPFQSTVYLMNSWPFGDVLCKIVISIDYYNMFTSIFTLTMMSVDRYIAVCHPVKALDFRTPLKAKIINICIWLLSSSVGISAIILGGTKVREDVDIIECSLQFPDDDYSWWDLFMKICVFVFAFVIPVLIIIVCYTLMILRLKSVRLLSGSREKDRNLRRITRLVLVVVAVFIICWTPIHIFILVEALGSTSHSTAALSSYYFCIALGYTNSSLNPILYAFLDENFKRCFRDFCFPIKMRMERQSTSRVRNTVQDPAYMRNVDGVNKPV
UniProt P97266, whole entry: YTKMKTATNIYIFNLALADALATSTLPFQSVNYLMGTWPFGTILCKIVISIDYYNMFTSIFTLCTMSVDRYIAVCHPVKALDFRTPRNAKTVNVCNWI
UniProt P41143, whole entry: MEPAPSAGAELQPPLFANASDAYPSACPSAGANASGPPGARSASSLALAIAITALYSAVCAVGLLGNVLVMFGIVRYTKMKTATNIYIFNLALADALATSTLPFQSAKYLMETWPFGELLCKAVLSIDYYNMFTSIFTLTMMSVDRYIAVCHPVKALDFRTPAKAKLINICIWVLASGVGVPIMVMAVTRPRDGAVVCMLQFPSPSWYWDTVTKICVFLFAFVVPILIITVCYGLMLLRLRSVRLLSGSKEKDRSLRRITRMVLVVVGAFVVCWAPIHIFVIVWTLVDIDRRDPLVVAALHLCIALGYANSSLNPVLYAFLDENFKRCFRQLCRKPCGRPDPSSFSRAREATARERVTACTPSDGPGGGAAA

How the values were obtained:
[1] = molecular target: Kappa-type opioid receptor (Cavia porcellus, UniProt P41144); conditions: Ileum
Mu-type opioid receptor = Mu-type opioid receptor (Cavia porcellus, UniProt P97266); assay: Displacement of [3H]DAMGO from MOR in Hartley guinea pig membrane
Mus musculus = assay: Antinociceptive activity in sc dosed mouse by PPQ abdominal stretch assay; conditions: Abdomen
[2] = molecular target: Delta-type opioid receptor (Homo sapiens, UniProt P41143); assay: Displacement of [3H]-diprenorphine from recombinant DOR (unknown origin) expressed in rat C6 cells

Structure (SMILES) | IC50 [1] [nM] | Ki (Mu-type opioid receptor) [nM] | further results
CO[C@]12CC[C@@]3(C[C@@H]1[C@](C)(O)C(C)C)[C@H]1Cc4ccc(O)c5c4[C@@]3(CCN1CC1CC1)[C@H]2O5 | 0.52 | 0.6 | 
CO[C@]12CC[C@@]3(C[C@@H]1[C@](C)(O)CCC(C)C)[C@H]1Cc4ccc(O)c5c4[C@@]3(CCN1CC1CC1)[C@H]2O5 [listing 1 of 2 here] |  |  | ED50 (Mus musculus): 0.023 mg/kg
CCCCC[C@](C)(O)[C@H]1C[C@@]23CC[C@]1(OC)[C@@H]1Oc4c(O)ccc5c4[C@@]12CCN(CC1CC1)[C@@H]3C5 |  | 2.7 | 
CCCCC[C@@](C)(O)[C@H]1C[C@@]23CC[C@]1(OC)[C@@H]1Oc4c(O)ccc5c4[C@@]12CCN(CC1CC1)[C@@H]3C5 | 12.3 | 2.4 | 
CCC[C@](C)(O)[C@H]1C[C@@]23CC[C@]1(OC)[C@@H]1Oc4c(O)ccc5c4[C@@]12CCN(CC1CC1)[C@@H]3C5 | 0.49 | 1.3 | 
CO[C@]12CC[C@@]3(C[C@@H]1[C@](C)(O)CC(C)C)[C@H]1Cc4ccc(O)c5c4[C@@]3(CCN1CC1CC1)[C@H]2O5 [listing 1 of 2 here] |  |  | ED50 (Mus musculus): 0.02 mg/kg
CO[C@]12CC[C@@]3(C[C@@H]1[C@](C)(O)CC(C)C)[C@H]1Cc4ccc(O)c5c4[C@@]3(CCN1CC1CC1)[C@H]2O5 [listing 2 of 2 here] |  |  | Ki [2]: 0.34 nM
CCC[C@@](C)(O)[C@H]1C[C@@]23CC[C@]1(OC)[C@@H]1Oc4c(O)ccc5c4[C@@]12CCN(CC1CC1)[C@@H]3C5 |  | 0.9 | 
CO[C@]12CC[C@@]3(C[C@@H]1[C@](C)(O)CCC(C)C)[C@H]1Cc4ccc(O)c5c4[C@@]3(CCN1CC1CC1)[C@H]2O5 [listing 2 of 2 here] |  |  | Ki [2]: 0.42 nM
